# Data as given in PubChem BioAssay AID540335 (Broad Institute, 2011).
# The entries are a selection whose mix differs from that of the whole data set. Measured potencies and affinities stand elsewhere. Activity calls are given as the source filed them.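 Rule for the calls: active = dose-dependent rise or fall in viability, either side of zero, with half-maximal concentration at or below a set limit; inconclusive = flat curve at 30 to 70% viability loss, or poor fit; inactive = flat within 30% either way, or potency beyond limit.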
# Test: A375 melanoma cell viability reduction, dose response, counter-screen for MITF modulator project, cherry-pick samples, set 2 (AID 540335);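 note: A375 human melanoma cells which do not depend on MITF; 0% = median of neutral control wells and 100% = double that signal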
# Settings: CellTiter-Glo ATP luminescence, 24 h; at 35 µM (top of the series)
row,SMILES,"activity change, negative = decreased viability"
1,O=[N+]([O-])c1cc([N+](=O)[O-])c(-c2ccn[nH]2)s1,inactive: -18.6%
